In patent US20210309718A1:

Key:
sFGFR3_Del4-D3 (human) [1] = molecular target: sFGFR3_Del4-D3 (human) (UniProt P22607); assay: SPR (Biacore T200), immobilised sFGFR3_Del4-D3, FGF as analyte, 2:1 (conformational change) model, ka2
sFGFR3_Del4-D3 (human) [2] = molecular target: sFGFR3_Del4-D3 (human) (UniProt P22607); assay: SPR (Biacore T200), immobilised sFGFR3_Del4-D3, FGF as analyte, 2:1 (conformational change) model, kd2

human FGF9 (from UniProt P31371 4-208) (ligand)
ka2 (sFGFR3_Del4-D3 (human) [1]): 0.03 M⁻¹ s⁻¹
kd2 (sFGFR3_Del4-D3 (human) [2]): 0.0036 s⁻¹
